Two molecules from ChEMBL document CHEMBL4028893, “Discovery and Optimization of Potent, Cell-Active Pyrazole-Based Inhibitors of Lactate Dehydrogenase (LDH)” (J Med Chem, 2017) can be followed below.

The test system of one series is Liver. Briefly: Half life in rat liver microsomes in presence of NADPH/UDPGA. The class given is ADME, microsome. (In general: Liver microsomes are a subcellular fraction often used to study metabolism.)
Another series concerns Plasma. In words: Half life in mouse plasma. The class given is ADME, cell-free.
A short description of series [1]: Kinetic solubility of compound in PBS buffer at 150 uM at pH 7.4 after 6 hrs by shake-flask method. The class given is physicochemical. To be noted: pH 7.4, 6 h.
In another series the test system is Mus musculus. In words: Half life in CD1 mouse plasma at 50 mg/kg, po measured over 24 hrs post dose by LC/MS/MS analysis. Format: ADME, organism-based. To be noted: in vivo.

Each structure is given as a SMILES string. A value given as a limit tells only on which side of the number the result lay.

For the molecule `NS(=O)(=O)c1ccc(Cc2c(-c3cccc(-c4ccccc4)c3)nn(-c3nc(C(=O)O)cs3)c2CC2CC2)cc1`, the t1/2 in the series on Liver is above 30 min; in the series on Plasma it was above 120 min. Moreover, the Kinetic_solubility in series [1] was above 82 µg/mL.

Consider `NS(=O)(=O)c1ccc(Cc2c(-c3cccc(-c4ccccc4)c3)nn(-c3nc(C(=O)O)cs3)c2C2CC2)cc1`, for which the t1/2 in the series with Liver was above 30 min; in the series with Mus musculus, 1.94 h; with Plasma it was above 120 min. This molecule came in with a Kinetic_solubility in series [1] above 82 µg/mL.
